{"sequences": {"note": "By UniProt entry, the sequences of proteins in these tests, tags left out.", "UniProt P21554, whole entry": "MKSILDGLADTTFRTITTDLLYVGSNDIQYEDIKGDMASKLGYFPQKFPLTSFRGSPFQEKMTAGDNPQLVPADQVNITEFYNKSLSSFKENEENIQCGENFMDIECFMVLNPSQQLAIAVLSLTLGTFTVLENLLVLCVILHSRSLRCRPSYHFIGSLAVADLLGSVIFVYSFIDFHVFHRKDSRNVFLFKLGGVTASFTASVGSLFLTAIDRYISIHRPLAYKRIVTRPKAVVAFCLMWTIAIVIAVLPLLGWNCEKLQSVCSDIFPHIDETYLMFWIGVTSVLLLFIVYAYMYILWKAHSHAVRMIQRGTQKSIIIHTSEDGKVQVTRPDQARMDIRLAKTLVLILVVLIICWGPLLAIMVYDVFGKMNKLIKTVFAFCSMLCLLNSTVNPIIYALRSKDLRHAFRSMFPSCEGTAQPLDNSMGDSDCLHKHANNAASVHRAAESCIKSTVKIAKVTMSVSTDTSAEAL"}, "source": "paper PMC4283194", "about": "(Neuroimage, 2014)", "key": {"CB1 receptor [1]": {"biological_target": "T1, CB1 receptor (Homo sapiens, UniProt P21554)", "details": "SRTM; for ICC of BPND / Median % diff (test–retest) of BPND / Median BPND / Mean %BS-CV of BPND: pons pseudo-reference"}, "CB1 receptor [2]": {"biological_target": "T1, CB1 receptor", "experiment": "[11C]MePPEP PET, VT by reversible three-compartment model with variable blood volume (4kbv)", "assay_type": "in vivo", "design": "assess the stability of CB1-receptor quantification in humans in vivo; from tissue; host or cells: living human brain (healthy volunteers), in vivo PET; VT median: unit not given beside the values", "method": "(§1) Continuous and intermittent blood samples were collected to allow the subsequent generation of metabolite-corrected arterial plasma time–activity curves (TACs) ([Hammers et al., 2008]). During the first 15 min blood was withdrawn continuously at a rate of 300 ml/h and radioactivity measured in a BGO detection system ([Jones et al., 1994]). To quantify plasma and whole blood radioactivity, as well as to allow quantification of the parent fraction of the radiotracer, intermittent discrete (10 ml) samples were taken with heparinised syringes before the scan (baseline) and at the following time points after scan start: 3, 5, 10, 15, 20, 30, and 50 min. At 75 min, a larger 17 ml sample was taken to allow quantification despite radioactivity decay. […] Continuous plasma input functions (IF) were derived by cross-calibration and combination of the continuous and discrete data, multiplication with the fitted plasma-over-blood ratio, and correction for parent radiotracer fraction, as described in detail in previous studies ([Hammers et al., 2007a], [Jones et al., 1994]).\nK1 and k2 were calculated as for the 2kbv compartmental model described above; in addition, two additional rate constants were estimated to describe transfer relating to the third compartment: k3, which describes the transfer from the free and non-specifically bound compartment to the specifically bound (third) compartment; and k4, which describes the opposite transfer ([Cunningham et al., 1991], [Huang et al., 1980]). Again, a variable blood volume term was also computed. According to compartmental model equations ([Gunn et al., 2001], [Watabe et al., 2006]):(2) VT=K1/k21+k3/k4."}, "CB1 receptor [3]": {"biological_target": "T1, CB1 receptor", "experiment": "[11C]MePPEP PET, VT by classic spectral analysis on ROI data (SA-ROIs)", "assay_type": "in vivo", "design": "assess the stability of CB1-receptor quantification in humans in vivo; from tissue; host or cells: living human brain (healthy volunteers), in vivo PET; VT median: unit not given beside the values", "method": "as §1\nVolumes of distribution (VTs) ([Innis et al., 2007]) for each ROI were obtained from the dynamic images and the metabolite-corrected IFs using spectral analysis (SA) ([Cunningham and Jones, 1993], [Cunningham et al., 1993], [Turkheimer et al., 1994]). The fast frequency boundary was kept at the default value of 0.1 s^− 1. […] Based on previous work with another tracer with relatively slow kinetics ([Hammers et al., 2007a]), we changed this to 0.00063 s^− 1 (log10 = − 3.20) in order to reduce noise."}, "[4]": {"details": "measured LogD at pH 7.4; ref Yasuno et al., 2008; cited from earlier work"}}, "note": "Several values for one entry are separate records, joined by “and”; a condition that tells them apart may be missing. Identical values can stand only once. Like-named read-outs stand apart in the source and are kept apart here.", "data": [{"smiles": "COc1cccc([C@H]2C[C@@H](N[C@H](C)c3ccccc3)C(=O)N2c2ccc(C(F)(F)F)cc2)c1", "note": "[[^11C]MePPEP, (3R,5R)-5-(3-methoxy-phenyl)-3-((R)-1-phenyl-ethylamino)-1-(4-trifluoro-methyl-phenyl)-pyrrolidin-2-one]", "values": [{"measurement": "ICC of BPND", "setting": "CB1 receptor [1]; ACG", "result": 0.50}, {"measurement": "Median % diff (test–retest) of BPND", "setting": "CB1 receptor [1]; ACG", "result": 40.2, "unit": "%"}, {"measurement": "Median BPND", "setting": "CB1 receptor [1]; ACG", "result": 1.1}, {"measurement": "Mean %BS-CV of BPND", "setting": "CB1 receptor [1]; Accumbens", "result": 157.4, "unit": "%"}, {"measurement": "Median % diff (test–retest) of BPND", "setting": "CB1 receptor [1]; Accumbens", "result": 53.0, "unit": "%"}, {"measurement": "Median BPND", "setting": "CB1 receptor [1]; Accumbens", "result": 1.1}, {"measurement": "ICC of BPND", "setting": "CB1 receptor [1]; Caudate", "result": 0.06}, {"measurement": "Mean %BS-CV of BPND", "setting": "CB1 receptor [1]; Caudate", "result": 48.8, "unit": "%"}, {"measurement": "Median % diff (test–retest) of BPND", "setting": "CB1 receptor [1]; Caudate", "result": 30.5, "unit": "%"}, {"measurement": "Median BPND", "setting": "CB1 receptor [1]; Caudate", "result": 0.9}, {"measurement": "Mean %BS-CV of BPND", "setting": "CB1 receptor [1]; Hippocampus", "result": 125.2, "unit": "%"}, {"measurement": "Median % diff (test–retest) of BPND", "setting": "CB1 receptor [1]; Hippocampus", "result": 54.6, "unit": "%"}, {"measurement": "Median BPND", "setting": "CB1 receptor [1]; Hippocampus", "result": 1.0}, {"measurement": "Mean %BS-CV of BPND", "setting": "CB1 receptor [1]; IFG", "result": 29.4, "unit": "%"}, {"measurement": "Median % diff (test–retest) of BPND", "setting": "CB1 receptor [1]; IFG", "result": 16.0, "unit": "%"}, {"measurement": "Median BPND", "setting": "CB1 receptor [1]; IFG", "result": 0.9}, {"measurement": "ICC of BPND", "setting": "CB1 receptor [1]; Pallidum", "result": 0.27}, {"measurement": "Mean %BS-CV of BPND", "setting": "CB1 receptor [1]; Pallidum", "result": 25.1, "unit": "%"}, {"measurement": "Median % diff (test–retest) of BPND", "setting": "CB1 receptor [1]; Pallidum", "result": 9.4, "unit": "%"}, {"measurement": "Median BPND", "setting": "CB1 receptor [1]; Pallidum", "result": 1.1}, {"measurement": "Median % diff (test–retest) of BPND, mean (SD) across regions", "setting": "CB1 receptor [1]; 7 ROIs", "result": "35.1 (17.4) % and 35.1 ± 17.4%"}, {"measurement": "ICC of BPND", "setting": "CB1 receptor [1]; Thalamus", "result": 0.19}, {"measurement": "Mean %BS-CV of BPND", "setting": "CB1 receptor [1]; Thalamus", "result": 108.2, "unit": "%"}, {"measurement": "Median % diff (test–retest) of BPND", "setting": "CB1 receptor [1]; Thalamus", "result": 42.3, "unit": "%"}, {"measurement": "Median BPND", "setting": "CB1 receptor [1]; Thalamus", "result": 1.0}, {"measurement": "Ratio pallidum/pons of VT", "setting": "CB1 receptor [2]", "result": 2.0}, {"measurement": "Mean BS % CV of VT, mean (SD) across regions", "setting": "CB1 receptor [2]; 8 ROIs", "result": "86.8 (24.6) % and 86.8 ± 24.6%"}, {"measurement": "Median % diff (test–retest) of VT, mean (SD) across regions", "setting": "CB1 receptor [2]; 8 ROIs", "result": "65.1 (27.1) % and 65.1 ± 27.1%"}, {"measurement": "ICC of VT", "setting": "CB1 receptor [2]; ACG", "result": 0.23}, {"measurement": "Mean BS % CV of VT", "setting": "CB1 receptor [2]; ACG", "result": 81.4, "unit": "%"}, {"measurement": "Median % diff (test–retest) of VT", "setting": "CB1 receptor [2]; ACG", "result": 53.7, "unit": "%"}, {"measurement": "Mean BS % CV of VT", "setting": "CB1 receptor [2]; Accumbens", "result": 131.7, "unit": "%"}, {"measurement": "Median % diff (test–retest) of VT", "setting": "CB1 receptor [2]; Accumbens", "result": 122.1, "unit": "%"}, {"measurement": "Mean BS % CV of VT", "setting": "CB1 receptor [2]; Caudate", "result": 69.9, "unit": "%"}, {"measurement": "Median % diff (test–retest) of VT", "setting": "CB1 receptor [2]; Caudate", "result": 68.5, "unit": "%"}, {"measurement": "Mean BS % CV of VT", "setting": "CB1 receptor [2]; Hippocampus", "result": 81.1, "unit": "%"}, {"measurement": "Median % diff (test–retest) of VT", "setting": "CB1 receptor [2]; Hippocampus", "result": 72.8, "unit": "%"}, {"measurement": "ICC of VT", "setting": "CB1 receptor [2]; IFG", "result": 0.13}, {"measurement": "Mean BS % CV of VT", "setting": "CB1 receptor [2]; IFG", "result": 51.9, "unit": "%"}, {"measurement": "Median % diff (test–retest) of VT", "setting": "CB1 receptor [2]; IFG", "result": 61.1, "unit": "%"}, {"measurement": "VT median", "setting": "CB1 receptor [2]; IFG", "result": 8.9}, {"measurement": "Mean BS % CV of VT", "setting": "CB1 receptor [2]; Pallidum", "result": 111.3, "unit": "%"}, {"measurement": "Median % diff (test–retest) of VT", "setting": "CB1 receptor [2]; Pallidum", "result": 69.7, "unit": "%"}, {"measurement": "ICC of VT", "setting": "CB1 receptor [2]; Pons", "result": 0.50}, {"measurement": "Mean BS % CV of VT", "setting": "CB1 receptor [2]; Pons", "result": 79.0, "unit": "%"}, {"measurement": "Median % diff (test–retest) of VT", "setting": "CB1 receptor [2]; Pons", "result": 40.3, "unit": "%"}, {"measurement": "ICC of VT", "setting": "CB1 receptor [2]; Thalamus", "result": 0.49}, {"measurement": "Mean BS % CV of VT", "setting": "CB1 receptor [2]; Thalamus", "result": 87.9, "unit": "%"}, {"measurement": "Median % diff (test–retest) of VT", "setting": "CB1 receptor [2]; Thalamus", "result": 32.7, "unit": "%"}, {"measurement": "Ratio pallidum/pons of VT", "setting": "CB1 receptor [3]", "result": 2.6}, {"measurement": "Median % diff (test–retest) of VT, mean (SD) across regions", "setting": "CB1 receptor [3]; 8 ROIs", "result": "15.5 (6.0) % and 15.5 ± 5.9%"}, {"measurement": "ICC of VT", "setting": "CB1 receptor [3]; ACG", "result": 0.74}, {"measurement": "Mean BS % CV of VT", "setting": "CB1 receptor [3]; ACG", "result": 35.0, "unit": "%"}, {"measurement": "Median % diff (test–retest) of VT", "setting": "CB1 receptor [3]; ACG", "result": 12.4, "unit": "%"}, {"measurement": "ICC of VT", "setting": "CB1 receptor [3]; Accumbens", "result": 0.80}, {"measurement": "Mean BS % CV of VT", "setting": "CB1 receptor [3]; Accumbens", "result": 35.2, "unit": "%"}, {"measurement": "Median % diff (test–retest) of VT", "setting": "CB1 receptor [3]; Accumbens", "result": 15.1, "unit": "%"}, {"measurement": "ICC of VT", "setting": "CB1 receptor [3]; Caudate", "result": 0.74}, {"measurement": "Mean BS % CV of VT", "setting": "CB1 receptor [3]; Caudate", "result": 44.2, "unit": "%"}, {"measurement": "Median % diff (test–retest) of VT", "setting": "CB1 receptor [3]; Caudate", "result": 13.6, "unit": "%"}, {"measurement": "VT median", "setting": "CB1 receptor [3]; Caudate", "result": 13.0}, {"measurement": "ICC of VT", "setting": "CB1 receptor [3]; Hippocampus", "result": 0.87}, {"measurement": "Mean BS % CV of VT", "setting": "CB1 receptor [3]; Hippocampus", "result": 34.1, "unit": "%"}, {"measurement": "Median % diff (test–retest) of VT", "setting": "CB1 receptor [3]; Hippocampus", "result": 10.9, "unit": "%"}, {"measurement": "ICC of VT", "setting": "CB1 receptor [3]; IFG", "result": 0.71}, {"measurement": "Mean BS % CV of VT", "setting": "CB1 receptor [3]; IFG", "result": 39.0, "unit": "%"}, {"measurement": "Median % diff (test–retest) of VT", "setting": "CB1 receptor [3]; IFG", "result": 13.3, "unit": "%"}, {"measurement": "ICC of VT", "setting": "CB1 receptor [3]; Pallidum", "result": 0.85}, {"measurement": "Mean BS % CV of VT", "setting": "CB1 receptor [3]; Pallidum", "result": 35.5, "unit": "%"}, {"measurement": "Median % diff (test–retest) of VT", "setting": "CB1 receptor [3]; Pallidum", "result": 9.4, "unit": "%"}, {"measurement": "ICC of VT", "setting": "CB1 receptor [3]; Pons", "result": 0.67}, {"measurement": "Mean BS % CV of VT", "setting": "CB1 receptor [3]; Pons", "result": 35.5, "unit": "%"}, {"measurement": "Median % diff (test–retest) of VT", "setting": "CB1 receptor [3]; Pons", "result": 24.8, "unit": "%"}, {"measurement": "ICC of VT", "setting": "CB1 receptor [3]; Thalamus", "result": 0.70}, {"measurement": "Mean BS % CV of VT", "setting": "CB1 receptor [3]; Thalamus", "result": 39.4, "unit": "%"}, {"measurement": "Median % diff (test–retest) of VT", "setting": "CB1 receptor [3]; Thalamus", "result": 24.7, "unit": "%"}, {"measurement": "LogD7.4", "setting": "[4]", "result": 4.8}]}]}
